Tests used:
[1] = system: Th1 or Th17 stimulated human skin; settings: topical dosing, aqueous solutions, ruxolitinib 0.75% and 1.5%, 24 hours post stimulation
[2] = system: IL-22 production in human T-cells; settings: read-out: IC50 for inhibiting IL-23 stimulated IL-22 production; cited from earlier work
[3] = system: STAT3 phosphorylation; settings: read-out: IC50 in TPO induced STAT3 phosphorylation assay; human whole blood; cited from earlier work

N#CC[C@H](C1CCCC1)n1cc(-c2ncnc3[nH]ccc23)cn1 [ruxolitinib]
gene expression of CXCL10 [1]: strong effect on gene expression | gene expression of IL-22 [1]: strong effect on gene expression | IC50 [2]: 50 nM | IC50 [3]: 281 nM

From US20250049817A1, “JAK INHIBITOR WITH A VITAMIN D ANALOG FOR TREATMENT OF SKIN DISEASES” (INCYTE CORPORATION, priority 2020, published 2025)
